Patent publication US20040009197A1 (priority 2000, published 2004)

Assay: UV spectrum: absorption maxima, molar extinction coefficient and K value
Format: physicochemical
Conditions: Solvent system Ethanol

Substance: Diethanolamine methoxy hydroxycinnamate
- Max ads.: 285
